Measured values published in EP4837912A1, “HETEROCYCLIC COMPOUND AND PHARMACEUTICAL COMPOSITION THEREOF” (dated 2026).

Tests used:
[1] = Blood-brain distribution experiment in mice; details: IV 2 mg/kg, 0.5 h after administration
Method: Male Balb/c mice were divided into groups, with 3 mice in each group, and received a single intravenous administration of the compound of the example (2 mg/kg), respectively. Animals were fasted overnight before the experiment, with food withheld from 10 hours before administration until 4 hours after administration. Each mouse was sacrificed 0.5 hours after administration, and blood and brain tissue were collected. Samples were centrifuged at 4000 rpm for 5 min at 4°C, and plasma was transferred to centrifuge tubes and stored at -80°C until analysis. Plasma samples were extracted using protein precipitation, and the extracts were analyzed by LC/MS/MS. […] Table 4: Concentration ratios of drugs in Blood-brain 0.5 h after administration in mice IV

[2] = Pharmacokinetic test in mice (plasma, LC/MS/MS)
Method: Male Balb/c mice were divided into groups, with 3 mice in each group. The compound of Example 1 was dissolved in vehicle: 5% DMSO/10% Solutol/85% (20% Captisol in water). The compound of Example 1 was administered intravenously (2 mg/kg) and orally as a single gavage (10 mg/kg), respectively. Animals were fasted overnight before the experiment, with food withheld from 10 hours before administration until 4 hours after administration. Blood samples were collected at 0.0833, 0.25, 0.5, 1, 2, 4, 6, 8, and 24 hours after intravenous administration, and at 0.25, 0.5, 1, 2, 4, 6, 8, and 24 hours after oral administration. 0.3 mL of whole blood was collected under isoflurane anesthesia into heparinized tubes. Samples were centrifuged at 4000 rpm for 5 min at 4°C, and plasma was transferred to centrifuge tubes and stored at -80°C until analysis. Plasma samples were extracted using protein precipitation, and the extracts were analyzed by LC/MS/MS. The pharmacokinetic results are shown in Tables 2 and 3 below: Table 2: Pharmacokinetic parameters of the compound in mouse plasma after intravenous administration

[3] = mouse plasma, intravenous administration, 2 mg/kg
[4] = mouse plasma, oral administration (single gavage), 10 mg/kg

SMILES	Concentration ratios of drugs in Brain/Blood [1] [%]	Drug in brain tissue [1] [ng/mL]	Drug in plasma [1] [ng/mL]	crossing of the blood-brain barrier (in words) [1]	AUC0-t [2, 3] [ng·h/mL]	C0 [2, 3] [ng/mL]	Cl [2, 3] [mL/min/kg]	T1/2 [2, 3] [h]	AUC0-t [2, 4] [ng·h/mL]	Cmax [2, 4] [ng/mL]	T1/2 [2, 4] [h]	Tmax [2, 4] [h]	Bioavailability ([2]; mouse, oral 10 mg/kg vs intravenous 2 mg/kg) [%]
C#Cc1cc(C)c(-c2ccc3oc(N[C@@H]4CCCN(CCO)C4)nc3n2)c(O)c1	19.7	54	275	does not readily cross the blood-brain barrier	–	–	–	–	–	–	–	–	–
C#Cc1cc(C)c(-c2ccc3oc(N[C@@H]4CCCN(C)C4)nc3n2)c(O)c1	73.6	348	473	can cross the blood-brain barrier	6954	1727	4.20	8.85	31402	2947	6.71	1.33	84.5
